Assay results taken from paper PMC4490394 (Scientific Reports, 2015).

What was measured:
[1] = system: AR nuclear translocation in HS-HEK293 cells; conditions: 0.3 or 1.0 μM test compound with 0.3 nM testosterone
[2] = target: T1, wtAR isolated from rat ventral prostates (Rattus norvegicus, UniProt P15207); experiment: biochemical; conditions: inhibition constant (Ki), AR binding, competition with 1 nM [3H]mibolerone, rat ventral prostate cytosol, overnight, 0–4 °C
T1 sequence (P15207 1-902): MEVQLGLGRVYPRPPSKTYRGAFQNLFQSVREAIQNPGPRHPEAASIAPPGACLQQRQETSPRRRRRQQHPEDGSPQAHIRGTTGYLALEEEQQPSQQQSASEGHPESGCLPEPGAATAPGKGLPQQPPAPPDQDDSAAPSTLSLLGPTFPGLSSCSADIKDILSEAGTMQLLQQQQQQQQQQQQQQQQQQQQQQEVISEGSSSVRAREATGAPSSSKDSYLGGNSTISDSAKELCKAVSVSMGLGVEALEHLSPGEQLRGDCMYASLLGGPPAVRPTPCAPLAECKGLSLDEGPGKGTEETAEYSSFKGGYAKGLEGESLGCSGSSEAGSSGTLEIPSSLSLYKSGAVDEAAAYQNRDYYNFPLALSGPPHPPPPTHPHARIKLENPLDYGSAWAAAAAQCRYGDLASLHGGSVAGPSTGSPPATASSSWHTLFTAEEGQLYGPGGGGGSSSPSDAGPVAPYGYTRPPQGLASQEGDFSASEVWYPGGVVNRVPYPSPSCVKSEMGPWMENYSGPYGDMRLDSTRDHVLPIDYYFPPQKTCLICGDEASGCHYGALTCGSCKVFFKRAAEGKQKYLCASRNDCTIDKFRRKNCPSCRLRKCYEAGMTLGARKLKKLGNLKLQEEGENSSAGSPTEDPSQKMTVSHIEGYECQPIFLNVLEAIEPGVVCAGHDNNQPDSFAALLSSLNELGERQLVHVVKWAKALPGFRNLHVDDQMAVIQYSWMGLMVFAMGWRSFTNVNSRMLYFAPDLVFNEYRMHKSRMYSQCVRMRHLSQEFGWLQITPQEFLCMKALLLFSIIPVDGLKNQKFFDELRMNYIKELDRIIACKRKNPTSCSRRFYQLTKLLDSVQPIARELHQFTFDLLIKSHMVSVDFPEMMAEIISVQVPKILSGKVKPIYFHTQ

[3] = target: AR(T877A) (Homo sapiens, UniProt P10275, T878A); experiment: cell-based
[4] = target: human AR (hAR) (Homo sapiens, UniProt P10275); experiment: cell-based

Row | Structure (SMILES) | effect on testosterone-induced nuclear translocation of AR [1] | Ki [2] | IC50 [3] | IC50 [4]
1 | CNC(=O)c1ccc(N2C(=S)N(c3cnc(C#N)c(C(F)(F)F)c3)C(=O)C23CCC3)cc1F [ARN-509, reference compound] | inhibit | 93 nM | – | –
2 | CC(=O)c1cc(C(=O)N[C@@H](C)Cn2ccc(-c3ccc(C#N)c(Cl)c3)n2)[nH]n1 [ORM-15341] | – | 8 nM and 8.4 nM | 700 nM | 38 nM

“And” between values parts separate entries of the source, which are not always exact repeats. Equal values may be shown once.
